Drawing on US20180044343A1, “BICYCLIC IMIDAZOLO DERIVATIVE” (Sumitomo Dainippon Pharma Co., Ltd., priority 2015, published 2018), this text covers IC50 for twelve molecules.

The chains behind the UniProt entries cited, without tags or fusion partners.
UniProt Q01064, whole entry: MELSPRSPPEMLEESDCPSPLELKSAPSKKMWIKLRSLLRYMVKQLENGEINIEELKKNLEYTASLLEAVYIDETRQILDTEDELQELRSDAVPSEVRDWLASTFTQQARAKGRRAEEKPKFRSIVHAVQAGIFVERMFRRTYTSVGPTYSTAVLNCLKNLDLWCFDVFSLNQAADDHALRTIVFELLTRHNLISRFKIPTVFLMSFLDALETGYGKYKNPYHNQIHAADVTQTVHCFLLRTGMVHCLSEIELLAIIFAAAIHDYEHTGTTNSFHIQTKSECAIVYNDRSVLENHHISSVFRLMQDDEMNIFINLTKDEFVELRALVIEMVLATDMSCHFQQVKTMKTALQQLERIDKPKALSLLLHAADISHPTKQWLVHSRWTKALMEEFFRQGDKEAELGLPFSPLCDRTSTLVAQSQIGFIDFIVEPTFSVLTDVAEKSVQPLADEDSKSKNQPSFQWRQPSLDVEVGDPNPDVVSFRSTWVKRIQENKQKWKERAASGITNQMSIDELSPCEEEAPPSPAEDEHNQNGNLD
UniProt P54750, whole entry: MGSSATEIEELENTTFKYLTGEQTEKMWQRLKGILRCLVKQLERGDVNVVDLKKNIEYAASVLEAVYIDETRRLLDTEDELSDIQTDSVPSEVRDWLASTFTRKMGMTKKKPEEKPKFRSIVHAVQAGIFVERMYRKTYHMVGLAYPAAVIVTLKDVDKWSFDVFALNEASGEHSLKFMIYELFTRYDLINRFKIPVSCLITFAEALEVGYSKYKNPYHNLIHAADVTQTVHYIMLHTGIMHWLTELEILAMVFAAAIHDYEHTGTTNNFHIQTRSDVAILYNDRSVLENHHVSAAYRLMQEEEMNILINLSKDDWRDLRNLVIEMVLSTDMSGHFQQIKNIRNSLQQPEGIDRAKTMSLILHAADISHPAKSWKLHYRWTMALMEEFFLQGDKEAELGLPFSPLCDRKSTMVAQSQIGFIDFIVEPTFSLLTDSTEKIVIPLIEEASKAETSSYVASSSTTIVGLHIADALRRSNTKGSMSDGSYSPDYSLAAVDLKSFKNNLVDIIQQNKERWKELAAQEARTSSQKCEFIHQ
UniProt Q14123, whole entry: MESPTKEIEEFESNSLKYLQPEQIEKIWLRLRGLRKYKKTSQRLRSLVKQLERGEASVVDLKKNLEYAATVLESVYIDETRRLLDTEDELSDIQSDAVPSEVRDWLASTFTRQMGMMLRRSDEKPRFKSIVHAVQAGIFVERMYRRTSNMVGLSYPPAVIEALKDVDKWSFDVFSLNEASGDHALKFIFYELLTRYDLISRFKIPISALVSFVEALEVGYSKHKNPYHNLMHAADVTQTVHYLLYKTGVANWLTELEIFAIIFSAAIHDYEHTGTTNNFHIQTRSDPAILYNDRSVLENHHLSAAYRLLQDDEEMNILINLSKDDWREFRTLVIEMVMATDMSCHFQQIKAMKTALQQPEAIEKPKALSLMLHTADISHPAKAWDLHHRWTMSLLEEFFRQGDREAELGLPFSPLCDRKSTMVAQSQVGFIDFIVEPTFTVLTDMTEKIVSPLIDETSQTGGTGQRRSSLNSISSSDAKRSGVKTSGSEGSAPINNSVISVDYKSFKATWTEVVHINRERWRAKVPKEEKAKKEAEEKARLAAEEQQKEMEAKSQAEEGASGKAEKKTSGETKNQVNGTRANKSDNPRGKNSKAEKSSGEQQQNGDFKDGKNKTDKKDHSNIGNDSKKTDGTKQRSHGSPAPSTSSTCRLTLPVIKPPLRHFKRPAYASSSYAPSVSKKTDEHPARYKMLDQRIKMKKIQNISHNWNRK

Test [1] concerns the target T1, PDE1B (Homo sapiens, UniProt Q01064). The experiment in a line: In vitro HTRF PDE1 inhibition assay (PDE1B). The class given is biochemical.
Test [2] has as its target T2, PDE1A3 (Homo sapiens, UniProt P54750). Nature of the test: In vitro HTRF PDE1 inhibition assay (PDE1A3). The class given is biochemical. To be noted: read-out: IC50 (μM), in vitro PDE1A3 HTRF Assay, PDE1A3, 100 nM cyclic GMP. An excerpt: (§1) An exemplary procedure for the in vitro Homogenous Time Resolved Fluorescence assay, which can be used to determine the inhibitory action of compounds of the present invention toward PDE1 or its isoforms, follows.
(§2) The HTRF PDE1 assay utilized the HTRF (Homogenous Time Resolved Fluorescence) technology, which is based on the competition between unlabeled cyclic nucleotide and cyclic nucleotide labeled with XL665 for the binding to cyclic nucleotide-specific antibody labeled with cryptate. The HTRF signal is thus inversely proportional to the concentration of cyclic nucleotide being measured. Since phosphodiesterases break down cyclic nucleotides, the HTRF signal was used to determine PDE activity.
(§3) The Cisbio cGMP HTRF assay kit (Cat no: 62GM2PEC) was utilized. Cyclic GMP was diluted to 200 nM in HTRF assay buffer (1 mM CaCl2, 10 mM MgCl2, 10 mM Tris-HCl, 0.1% BSA, pH 7.4). 10 μl of compound or DMSO was diluted in 200 nM cyclic GMP solution and added to wells of a 96 well white plate to give 100 nM cyclic GMP in 1% DMSO final concentration. PDE (1A3, 1B or 1C) was diluted to 2× working concentration in HTRF assay buffer with 2 μg/ml Calmodulin, and 10 μl was added to initiate the reaction. […] The plate was then read on Perkin Elmer EnVision at 2 different FRET readings ex/em 340 nm/665 nm and 340 nm/615 nm. […]

For test [3], the target named is T3, PDE1C (Homo sapiens, UniProt Q14123). The experiment in a line: In vitro HTRF PDE1 inhibition assay (PDE1C). Format: biochemical. To be noted: read-out: IC50 (μM), in vitro PDE1C HTRF Assay, 100 nM cyclic GMP.
From the text: as §1, §2, §3

In test [4] the target is T1, PDE1B. The experiment in a line: In vitro SPA PDE1 inhibition assay (PDE1B). To be noted: read-out: IC50 (μM), in vitro PDE1B SPA Assay, [3H]-cGMP 100 nM. The procedure: (§4) The commercially available Scintillation Proximity Assay (SPA) system (Perkinelmer) was used for PDE1 inhibition assays. SPA Yttrium Silicate beads preferentially binds to non-cyclic GMP compared to cyclic GMP (cGMP) in the presence of zinc sulphate, which enables to measure the amount of enzyme reaction product ([^3H]-GMP) by scintillation counting.
(§5) For PDE1 inhibition assay, 10 μl of the test compounds in 5% dimethyl sulfoxide diluted in SPA assay buffer (1 mM CaCl2, 10 mM MgSO4, 10 mM Tris-HCl, pH 7.4) were placed in a 96-well white microtiter plate, and 20 μl of [^3H]-cGMP solution (100 nM final concentration, Perkinelmer) in SPA assay buffer was added. Assays were initiated by adding 20 μl of PDE (1A3, 1B or 1C) enzyme solution including calmodulin (final concentration 1 μg/ml). After 30 min incubation at 27° C., the reaction was stopped by the addition of 50 μl of a suspension of 10 mg/ml SPA beads in 18 mM ZnSO4. The microtiter plates were settled for 60 min, and then were measured in a TopCount NXT scintillation counter (PerkinElmer). IC50 values were determined from sigmoidal curves by plotting the percentage of PDE activity versus log compound concentration. IC50 was defined as the concentration of the test compounds required to inhibit the cyclic nucleotide hydrolyzing activities of tested PDEs by 50%.

The target in test [5] is T2, PDE1A3. The experiment in a line: In vitro SPA PDE1 inhibition assay (PDE1A3). To be noted: read-out: IC50 (μM), in vitro PDE1A3 SPA Assay, PDE1A3, [3H]-cGMP 100 nM. Here is the method: as §4, §5
Test [6] addresses T3, PDE1C. Nature of the test: In vitro SPA PDE1 inhibition assay (PDE1C). To be noted: read-out: IC50 (μM), in vitro PDE1C SPA Assay, [3H]-cGMP 100 nM. Here is the method: as §4, §5

Where only a bound is given, the exact number is not on record here.

As to `Cn1c(OCc2nccs2)nn2c(C3CCOCC3)ncc2c1=O`, the IC50 against PDE1B [1] was below 1000 nM.

In turn, `Cn1c(OCc2ccccn2)nn2c(C3CCOCC3)ncc2c1=O` displayed a 50% inhibitory concentration (IC50) against PDE1B [1] below 1000 nM.

Turning to `Cc1ccc(COc2nn3c(C(C)C)ncc3c(=O)n2C)cc1`, at PDE1B [1], the IC50 is below 1000 nM.

Regarding `CC(C)c1ncc2c(=O)n(C)c(OCC3CCOCC3)nn12`, the IC50 is below 1000 nM at PDE1B [1]; below 1 µM at PDE1A3 [2]; 1 to 10 µM on PDE1C [3]; 0.469 µM on PDE1B [4]; 1.43 µM at PDE1A3 [5]; 4.88 µM at PDE1C [6].

The molecule `Cn1c(OCc2ccc(F)cc2)nn2c(C3CCOCC3)ncc2c1=O` gave a concentration for half-maximal inhibition (IC50) at PDE1B [1] below 1000 nM.

For the molecule `Cn1c(OCC2CCC(F)(F)CC2)nn2c(C3CCOCC3)ncc2c1=O`, the IC50 against PDE1B [1] was below 1000 nM.

For `CCn1c(OCc2ccncc2)nn2c(C(C)C)ncc2c1=O`, the IC50 against PDE1B [1] was below 1000 nM.

`CC(C)c1ncc2c(=O)n(C)c(OCc3ccc(F)cn3)nn12` yielded an IC50 on PDE1B [1] below 1000 nM.

Molecule `COc1ccc(COc2nn3c(C4CCOCC4)ncc3c(=O)n2C)cc1` gave an IC50 at PDE1B [1] of 1000 to 10000 nM.

In the case of `CCn1c(OCCOC)nn2c(C(C)C)ncc2c1=O`, the IC50 on PDE1B [1] was below 1000 nM.

As for `Cn1c(OCCOc2ccc(F)cc2)nn2c(C3CCOCC3)ncc2c1=O`, on PDE1B [1], the half-maximal inhibitory concentration (IC50) was below 1000 nM.

At PDE1B [1], `CC(Oc1nn2c(C3CCOCC3)ncc2c(=O)n1C)C1CCC(F)(F)CC1` (centres unmarked) showed an IC50 below 1000 nM.
